In the assay the test system is SW480. As to the kind of experiment: drug sensitivity score (DSS, integrated dose-response area); higher = more sensitive (stronger viability reduction); extreme values may be limits of the assay. In short, it runs like this: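 Viability of induced SW480 cells carrying control or SND1-targeting shRNA was read by CellTiter-Glo 72 h after plating at 1000 cells per well onto 384-well plates holding 525 small-molecule inhibitors at five concentrations. Induction used 0.1 µg/mL doxycycline for 7 days. Each drug sensitivity score integrates the area under a fitted non-linear dose–response model.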

As for `NCc1ccc(OCCCc2sc(-c3ccc4c(c3)/C(=N/Nc3nc5ccccc5s3)CCC4)nc2C(=O)O)cc1` [WEHI-539], the drug sensitivity score reads like this: (shRNA: SND1 shRNA1 (SND1 silenced)) 4.6 DSS; (shRNA: SND1 shRNA2 (SND1 silenced)) 3.3 DSS; (shRNA: control shRNA (non-targeting)) 4.1 DSS.

The values are drawn from the supplement of paper PMC9265050, “Inhibition of RNA Binding in SND1 Increases the Levels of miR-1-3p and Sensitizes Cancer Cells to Navitoclax” (Cancers, 2022).
